# Test results taken from BindingDB's records for doi:10.1016/0014-2999(93)90365-o (University of Toronto, 1993).
# By UniProt entry, the sequences of proteins in these tests, tags left out.
# UniProt P21917, whole entry: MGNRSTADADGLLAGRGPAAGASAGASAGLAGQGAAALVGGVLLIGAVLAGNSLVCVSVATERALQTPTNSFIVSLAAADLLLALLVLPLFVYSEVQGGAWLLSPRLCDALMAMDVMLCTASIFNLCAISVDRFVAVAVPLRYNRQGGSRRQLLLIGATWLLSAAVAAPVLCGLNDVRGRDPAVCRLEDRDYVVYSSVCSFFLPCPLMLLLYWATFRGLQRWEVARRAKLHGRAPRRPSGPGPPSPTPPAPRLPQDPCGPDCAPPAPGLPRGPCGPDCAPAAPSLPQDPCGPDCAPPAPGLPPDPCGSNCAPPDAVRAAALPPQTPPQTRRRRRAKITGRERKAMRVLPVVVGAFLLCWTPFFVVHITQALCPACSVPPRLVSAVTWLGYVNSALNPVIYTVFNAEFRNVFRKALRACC
# Values joined by “and” are separate entries in the source; they are usually repeats but may differ in a detail not shown here. Equal entries are not always repeated.
# Target: D(4) dopamine receptor (Homo sapiens, UniProt P21917)
structure (smiles),measurement,value
CCN1CCCC1CNC(=O)c1cc(S(N)(=O)=O)ccc1OC (stereo unspecified) [N-[(1-ethylpyrrolidin-2-yl)methyl]-2-methoxy-5-sulfamoylbenzamide],Ki,0.965 µM and 1.01 µM
